# Measured values reported in ChEMBL document CHEMBL4619711, “Medicinal Chemistry of Inhibiting RING-Type E3 Ubiquitin Ligases” (J Med Chem, 2020).
# By UniProt entry, the sequences of proteins in these tests, tags left out.
# UniProt P98170, whole entry: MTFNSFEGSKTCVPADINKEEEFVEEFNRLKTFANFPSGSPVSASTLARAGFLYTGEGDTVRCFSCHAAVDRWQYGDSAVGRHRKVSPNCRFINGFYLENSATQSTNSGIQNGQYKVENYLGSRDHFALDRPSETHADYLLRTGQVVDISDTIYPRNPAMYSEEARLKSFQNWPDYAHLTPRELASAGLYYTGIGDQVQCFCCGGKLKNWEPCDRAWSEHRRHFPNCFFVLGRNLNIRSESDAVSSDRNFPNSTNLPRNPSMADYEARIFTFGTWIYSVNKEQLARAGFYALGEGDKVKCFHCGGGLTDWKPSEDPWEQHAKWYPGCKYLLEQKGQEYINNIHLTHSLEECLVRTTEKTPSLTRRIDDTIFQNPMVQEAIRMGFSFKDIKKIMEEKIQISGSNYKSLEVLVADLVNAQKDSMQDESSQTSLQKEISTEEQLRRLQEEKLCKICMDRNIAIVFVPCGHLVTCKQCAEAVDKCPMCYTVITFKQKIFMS
# Target: E3 ubiquitin-protein ligase XIAP (Homo sapiens, UniProt P98170)
# Assay: Inhibition of XIAP-BIR3 domain (unknown origin)
smiles,measurement,value
CN[C@@H](C)C(=O)N[C@H]1COc2ccccc2N(Cc2c(OC)ccc3cc(Br)ccc23)C1=O,IC50,> 54 µM
